Screening data deposited in PubChem BioAssay by National Center for Advancing Translational Sciences (NCATS).
Compounds with a hit are over-represented: about 16% of the library has one in this group of screens.
TDP1 inh = TDP1 (human) enzyme inhibition; 0.28% of 350,000 active; Potency, µM (highest dose often 130 µM), inactives show top-dose activity change, negative = inhibition, usual class: inhibitors; recombinant TDP1, AlphaScreen DNA substrate cleavage; further: potency means the concentration at half of the fitted maximal effect; on the % scale 0 is the no-effect control and ±100 the full control effect; nearly all actives have a fitted effect of over 40% in size
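Tdp1 1 nM final; 15 min RT w/ cpd; substrate 15 nM, 5 min; beads 10 ug/ml, 10 min; AlphaScreen read. Neg ctrl: no enzyme.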
miR-21 FLuc = miR-21 reporter, rising signal | AID 2288 | HeLa miR-21 FLuc reporter, luciferase, 48 h | 340,000 tested, under 10 active | Potency, µM (titrated, usually from 38.3 µM), for the others: at the top dose reporter change, positive = more light; active = well fitted rising curve with a large enough effect; inconclusive = small, poorly fitted or top-dose-only effect; inactive = no such curve, though single readings can be large or run the other way;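 also: % of control where 0% means no effect; miR-21 action dims this reporter so a rising signal means less miR-21 action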
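HeLa cells stably expressing CMV-driven firefly luciferase with a downstream miR-21 binding sequence, endogenously expressing miR-21, were treated with titrations (up to about 40uM final) for 48 hours at 37 degree Celsius. Luciferase luminescence was read after lysis.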
TDP1 cell noCPT = qHTS for Inhibitors of human tyrosyl-DNA phosphodiesterase 1 (TDP1): qHTS in cells in absence of CPT. DT40 Tdp1-/- hTDP1 cells, no CPT, ATP luminescence, 48 h. Potency, µM (series often up to 46.2 µM), without a hit: top-dose activity change, negative = growth inhibition, usual class: inhibitors. 15% of 420,000 active. AID 686978, 2013; further: potency means the concentration at half of the fitted maximal effect; on the % scale 0 is the no-effect control and ±100 the full control effect; nearly all actives have a fitted effect of over 55% in size
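Growth kinetics read by CellTiter-Glo luminescence after ≥48 hr at 37 °C. Cells: DT40 Tdp1-/- stably carrying human TDP1, 400 per well, compound exposure in the absence of CPT (DMSO vehicle).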
uPA generation = blocks generation of uPA at the cell surface; cell surface uPA generation assay, qHTS; Potency, µM (top dose mostly 38.3 µM), inactives show top-dose activity change, negative = inhibition, hits mostly inhibitors; 0.31% of 330,000 active; AID 540303; active means well fitted inhibition curve with a large enough effect; inconclusive means small, poorly fitted or top-dose-only effect; inactive means no such curve, though single readings can be large or run the other way; tested in mouse RAW 264.7 cells; further: potency means the concentration at half of the fitted maximal effect; on the % scale 0 is the no-effect control and ±100 the full control effect; nearly all actives have a fitted effect of over 55% in size
DT40 TDP1 CPT = growth inhibition of DT40 Tdp1-/-;hTDP1 cells with camptothecin (screen for TDP1 inhibitors) | Potency, µM (doses to about 46.2 µM), without a hit: top-dose activity change, negative = growth inhibition, most hits filed as inhibitors | chicken DT40 Tdp1-/-;hTDP1 cells + 20 nM CPT, ATP luminescence, 48 h | 12% of 420,000 active | AID 686979; further: potency means the concentration at half of the fitted maximal effect; on the % scale 0 is the no-effect control and ±100 the full control effect; nearly all actives have a fitted effect of over 55% in size
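Chicken DT40 Tdp1-/- cells stably complemented with human TDP1 were seeded at 400 cells/well in medium containing 20 nM camptothecin, exposed to pin-transferred compounds, and grown at 37 °C for at least 48 hr. Viability was read as ATP luminescence.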
* hit, by the source's call; u = inconclusive; x = no result given. Unless noted, the call rests on the fitted dose curve; in most records, active means well fitted curve in the direction sought with a large enough effect; inconclusive means small, poorly fitted or top-dose-only effect, or another doubt; inactive means no such curve, though single readings can be large; an effect the other way counts as inactive or inconclusive.

SMILES | TDP1 inh | miR-21 FLuc | TDP1 cell noCPT | uPA generation | DT40 TDP1 CPT
COc1ccc(CCCNC(=O)C2Cc3c(-c4ccc(NC(C)=O)cc4)ccnc3O2)cc1 (stereo not drawn) | x | x | 18µM* | x | 16µM*
COc1ccc(NC(=O)COC(=O)CCc2ccc(S(=O)(=O)N3CCOCC3)cc2)c(OC)c1 | 0% | x | 8% | 7% | -15%
CC(=O)Nc1cc(-c2ccccc2CN(C)C)cn2c(-c3ccc(C(C)=O)cc3)cnc12 | x | x | 16µM* | x | u
COC(=O)c1ccc2nc(-c3cccc(N)c3)cn2c1 | 3% | 25% | u | -14% | -25%
CC(=O)c1ccc(-n2c(CCC(=O)O)ccc2-c2ccccc2)cc1 | x | -7% | -22% | -5% | -14%
CC(=O)Nc1cc(-c2cccc(N)c2)cn2c(-c3ccc(C(C)=O)cc3)cnc12 | x | x | 10µM* | x | u
CC(=O)Nc1cc(-c2cccc(CO)c2)cn2c(-c3ccc(F)cc3)cnc12 | x | x | u | x | 23µM*
CC(=O)Nc1cc(-c2cccc(CO)c2)cn2c(-c3ccc(C(C)=O)cc3)cnc12 | x | x | 21µM* | x | u
CC(C)(C)C1=NN=C2c3ccccc3C(=O)C21 (stereo not drawn) | 0% | -24% | u | 5% | -5%
CCCn1nc2cc(C(=O)NCC34CC5CC(CC(C5)C3)C4)ccc2c1OCC | -1% | 2% | 18µM* | u | 21µM*
O=C1C=C(/C=C/c2ccccc2)C[C@@H](c2ccc(F)cc2)C1 | 2% | x | u | -3% | u
COc1ccc([C@H]2CC(=O)C=C(c3ccc4ncccc4c3)C2)cc1OC | 3% | x | 21µM* | 0% | u
COc1ccc([C@H]2CC(=O)C=C(c3ccc(-c4ccccc4)c(F)c3)C2)cc1OC | 0% | x | u | 8% | u
COc1ccc([C@H]2CC(=O)C=C(/C=C/c3ccccc3)C2)cc1OC | 5% | x | u | -4% | 18µM*
COc1ccc([C@H]2CC(=O)C=C(c3ccc(O)cc3)C2)cc1OC | 4% | x | 21µM* | u | u

Reprinted from the results shown (3 entries):
SMILES | TDP1 inh | miR-21 FLuc | TDP1 cell noCPT | uPA generation | DT40 TDP1 CPT
COc1ccc(CCCNC(=O)C2Cc3c(-c4ccc(NC(C)=O)cc4)ccnc3O2)cc1 (stereo not drawn) | x | x | 18µM* | x | 16µM*
COc1ccc(NC(=O)COC(=O)CCc2ccc(S(=O)(=O)N3CCOCC3)cc2)c(OC)c1 | 0% | x | 8% | 7% | -15%
CC(=O)Nc1cc(-c2ccccc2CN(C)C)cn2c(-c3ccc(C(C)=O)cc3)cnc12 | x | x | 16µM* | x | u

Later entries:
SMILES | TDP1 inh | miR-21 FLuc | TDP1 cell noCPT | uPA generation | DT40 TDP1 CPT
COc1ccc([C@H]2CC(=O)C=C(c3ccc4c(c3)OCO4)C2)cc1OC | 5% | x | u | 3% | u
COc1ccc([C@H]2CC(=O)C=C(c3ccc(OC)c(OC)c3)C2)cc1 | -10% | x | u | 6% | 12µM*
CCC1(C2=CCCCC2)C(=O)NC(=S)N=C1N (stereo not drawn) | x | x | -10% | -2% | 0%
CC1CC(c2ccccc2)n2nc(N3C(=O)c4ccccc4C3=O)nc2N1 (stereo not drawn) | 2% | -4% | -9% | 6% | -1%
O=S(=O)(NCC(c1cccs1)N1CCc2ccccc2C1)c1ccccc1 (stereo not drawn) | 1% | x | -16% | 1% | 16%
COc1ccc([C@H]2CC(=O)C=C(c3ccc4ccccc4c3)C2)cc1OC | 4% | x | 16µM* | 17% | u
Cc1cccc2c(=O)cc(C)n(CC(=O)N3CCCCC3)c12 | 3% | -9% | -13% | 4% | 2%
CCOC(=O)C1(CC2CCCCO2)CCN(Cc2nc(C(C)C)cs2)CC1 (stereo not drawn) | 3% | -2% | u | 2% | 16µM*
CCOC(=O)C1(CC2CCCCO2)CCN(Cc2c(C)cc(C)cc2-n2cccn2)CC1 (stereo not drawn) | 3% | 3% | 29µM* | 3% | u
O=C(c1ccco1)N1CCC2(CCCN(Cc3ccncc3)C2)CC1 | x | x | -23% | x | 4%
Cc1cccc(NC(=O)CSc2ncc3c(n2)-c2cc(Cl)ccc2N(C)S3(=O)=O)c1C | 5% | 5% | u | x | u
Nc1nc(N)c(N=O)c(Nc2ccc(Cl)c(Cl)c2)n1 | x | x | 7.3µM* | x | 4.1µM*
Cc1ccc(Nc2nc(N)nc(N)c2N=O)cc1Cl | x | x | 13µM* | x | 10µM*
CCc1c(N)nc(N)nc1Nc1ccc(C)c(C)c1 | x | x | 15µM* | 11% | u
Nc1nc(N)c(N=O)c(Nc2cccc(Cl)c2)n1 | x | x | 10µM* | x | 5.8µM*
CCc1c(Cl)nc(N)nc1Nc1ccccc1C | x | x | u | -8% | u
CCCCN(Cc1ccco1)S(=O)(=O)c1ccc(-c2ccc(=O)[nH]n2)s1 | 4% | -9% | u | 4% | u
C=CCSc1nnc(COc2ccc(=O)n(-c3ccccc3)n2)n1CC | 3% | 2% | 8% | -1% | 8%
CC1(C(=O)Nc2ccccc2)Cc2c(-c3ccc4c(c3)OCO4)ccnc2O1 (stereo not drawn) | x | x | -13% | x | u
CC(=O)c1c(C)[nH]c(C(=O)COC(=O)CCCOc2ccccc2)c1C | -1% | -3% | -3% | 3% | 5%
COC(=O)c1c(C)[nH]c(C(=O)COc2ccc3ccc(=O)oc3c2)c1C | x | x | 9.2µM* | 8% | u
CC(=O)c1c(C)[nH]c(C(=O)COc2cc(C)cc(C)c2)c1C | 5% | 2% | 16µM* | x | u
CC(=O)c1c(C)[nH]c(C(=O)OCCOc2ccccc2)c1C | 4% | 25% | 9.2µM* | -3% | u
CC(=O)c1c(C)[nH]c(C(=O)OCC(=O)c2ccc(C)s2)c1C | 1% | x | 18µM* | -9% | 23µM*
Cc1ccc(CNc2oc(C)nc2C#N)cc1 | -5% | -15% | -4% | -3% | -8%
Cc1ccc2nc3c(c(C(=O)OCC(=O)NC4CCS(=O)(=O)C4)c2c1)CCCC3 (stereo not drawn) | 6% | 4% | -19% | 1% | -21%
CC(C)=CCN1CCN(CCCn2cccn2)CC1CCO (stereo not drawn) | -3% | -2% | -7% | 2% | -12%
C=CC[C@@H](CC(=O)OC(C)(C)C)C(=O)OC[C@@H]1CCCN1C(=O)[C@@H](CC=C)CC(=O)N[C@@H](CO)Cc1ccccc1 | 0% | x | u | 8% | u
COc1ccc(CN(C)C(=O)c2[nH]c(C)c(C(C)=O)c2C)cc1F | 0% | 2% | 15µM* | 0% | u
CSc1ncccc1C(=O)OCC(=O)c1[nH]c(C)c(C(C)=O)c1C | -13% | x | u | -9% | 18µM*
CSc1ncccc1C(=O)OCC(=O)c1ccc[nH]1 | 0% | x | -21% | u | -13%
CC(=O)c1c(C)[nH]c(C(=O)OCc2ccccc2F)c1C | 7% | -19% | 21µM* | -5% | 15µM*
CCOC(=O)c1c(C)[nH]c(C(=O)OCc2ccccc2)c1C | 6% | -52% | u | u | -22%
CC(=O)c1c(C)[nH]c(C(=O)OCc2cccc(C)c2)c1C | 13% | -19% | 13µM* | -6% | 16µM*
CCCCOc1nc2ccccc2nc1NS(=O)(=O)c1ccc(F)cc1 | x | 12% | -2% | 4% | -4%

Structures above that contain a tert-butyl group, in the order listed:
SMILES | TDP1 inh | miR-21 FLuc | TDP1 cell noCPT | uPA generation | DT40 TDP1 CPT
CC(C)(C)C1=NN=C2c3ccccc3C(=O)C21 (stereo not drawn) | 0% | -24% | u | 5% | -5%
C=CC[C@@H](CC(=O)OC(C)(C)C)C(=O)OC[C@@H]1CCCN1C(=O)[C@@H](CC=C)CC(=O)N[C@@H](CO)Cc1ccccc1 | 0% | x | u | 8% | u
